In PubChem BioAssay AID828 (The Scripps Research Institute Molecular Screening Center, 2007) one finds inhibition data, which are given here for 50 compounds.

Chains of the proteins cited; added tags and fusions are not shown.
UniProt O43603, whole entry: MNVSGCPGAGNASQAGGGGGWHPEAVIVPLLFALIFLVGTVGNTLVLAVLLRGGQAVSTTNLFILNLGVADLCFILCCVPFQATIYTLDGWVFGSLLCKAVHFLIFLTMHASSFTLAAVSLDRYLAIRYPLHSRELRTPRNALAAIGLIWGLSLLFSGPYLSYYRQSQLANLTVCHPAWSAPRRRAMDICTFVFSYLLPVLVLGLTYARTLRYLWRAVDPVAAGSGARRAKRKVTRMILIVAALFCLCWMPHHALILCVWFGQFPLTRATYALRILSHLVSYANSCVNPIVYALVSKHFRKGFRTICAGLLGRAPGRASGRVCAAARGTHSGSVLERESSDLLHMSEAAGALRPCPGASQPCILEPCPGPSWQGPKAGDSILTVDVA

SMILES strings stand for the structures. This is a selection; strong and weak results do not stand in their true shares. Activity calls are given as the source filed them. Cut-off read from the data, not from the text of the source: active = inhibition above about 27%; inactive = the rest.

In this experiment the target is Galanin receptor type 2 (Homo sapiens) (UniProt O43603). The experiment in a line: GALR2 antagonists in receptor-expressing cells, primary screen (AID 828).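 Note: cells stimulated with galanin 1-16 at roughly its EC80; 0% = agonist challenge control and 100% = basal control without agonist.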 Particulars: antagonist mode, at 4 µM, active compounds read high.
A word on the inhibition: it is the relative decrease from the control value, in per cent. `Cc1nc2ccc3ccccc3c2s1.O=[N+]([O-])c1cc([N+](=O)[O-])c(O)c([N+](=O)[O-])c1`: the inhibition was inactive: -1.24%. In the case of `COc1ccccc1OP(C)(=O)Nc1c(C)cccc1C` (stereo not given), the inhibition is inactive: -4.44%. On to `CN1CCCCC1COC(=O)C1(O)c2ccccc2CCc2ccccc21` (stereo not given), for which the inhibition was inactive: 3.1%. Consider `CP(=O)(Nc1ccc(SC(F)(F)F)cc1)Oc1ccccc1` (stereo not given), for which the inhibition is inactive: 6.59%. As to `CC1=NCCc2c1[nH]c1ccccc21.O=[N+]([O-])c1cc([N+](=O)[O-])c(O)c([N+](=O)[O-])c1`, the inhibition is inactive: 13.5%.

On to `Cc1cc(C)cc(OP(C)(=O)Nc2ccc(C)cc2C)c1` (stereo not given), for which the inhibition is inactive: -4.69%. Regarding `CCOC(=O)c1ccc(NP(C)(=O)Oc2cc(C)cc(C)c2)cc1` (stereo not given), the inhibition was inactive: -5.17%. Take `Cc1cc(C)cc(OP(C)(=O)Nc2ccccn2)c1` (stereo not given): the inhibition is inactive: 19.8%. For the compound `Cc1ccc(C)c(NP(C)(=O)Oc2ccccc2)c1` (stereo not given), the inhibition was inactive: 11.5%. In the case of `CC(C)(C)c1ccc(OP(C)(=O)Nc2ccc(SC(F)(F)F)cc2)cc1` (stereo not given), the inhibition was inactive: 9.29%. Next, `CCOC(=O)c1ccc(NP(C)(=O)Oc2ccccc2)cc1` (stereo not given): inactive: 0.06%; `COc1ccccc1OP(C)(=O)Nc1ccc(C)cc1` (stereo not given): inactive: -3.44%. For the compound `Cc1ccc(NP(C)(=O)Oc2ccccc2)c(C)c1` (stereo not given), the inhibition is inactive: 11.1%. The figure for `COc1ccc(OP(C)(=O)Nc2cccc(F)c2)cc1` (stereo not given) is inactive: 17.6%; for `CP(=S)(Nn1cnnc1)Oc1ccccc1` (stereo not given) it is inactive: -19.9%. The figure for `CP(=O)(Nc1ccccc1Br)Oc1ccccc1` (stereo not given) is inactive: -0.67%; for `Cc1cccc(C)c1OP(C)(=O)Nc1ccc(SC(F)(F)F)cc1` (stereo not given) it is inactive: -13.1%; for `CP(=O)(NC(=O)Nc1ccccc1)Oc1ccccc1` (stereo not given) it is inactive: 1.16%. Take `Cc1cc(C)cc(OP(C)(=O)Nc2ccc(SC(F)(F)F)cc2)c1` (stereo not given): the inhibition is inactive: -14.6%. Turning to `CCOP(C)(=S)SCC(=O)NC(C)C(=O)O` (stereo not given), the inhibition is inactive: -2.8%. For the compound `CCOC(=O)c1ccc(NP(C)(=O)Oc2ccc(OC)cc2)cc1` (stereo not given), the inhibition was inactive: -1.36%. Take `CP(=O)(Nc1ccccn1)Oc1ccc(Cl)cc1` (stereo not given): the inhibition was inactive: -16.9%. Turning to `CCN(CC)CC(O)COC(=O)C(O)(c1ccccc1)C1CCCCC1` (stereo not given), the inhibition was inactive: 2.19%. For the compound `COc1ccc(OP(C)(=O)Nc2ccc(Br)cc2)cc1` (stereo not given), the inhibition is inactive: -8.27%.

`CP(=O)(Oc1ccccc1)N1CCOC1=O` (stereo not given): the inhibition is inactive: -0.54%. Next, `COc1ccccc1OP(C)(=O)Nc1c(C)n(C)n(-c2ccccc2)c1=O` (stereo not given): inactive: 0.32%; `CP(=O)(Nc1ccc(Cl)cc1)Oc1ccc(F)cc1` (stereo not given): inactive: 10.5%; `CC(C)(C)c1ccc(OP(C)(=O)O)cc1`: inactive: 9.71%.

Turning to `CP(=O)(OC12CC3CC(CC(C3)C1)C2)OC12CC3CC(CC(C3)C1)C2`, the inhibition is inactive: -6.71%. In the case of `CCOC(=O)c1ccc(NP(C)(=O)Oc2ccc(Cl)cc2)cc1` (stereo not given), the inhibition was inactive: -7.01%. With `COc1ccc(OP(C)(=O)Nc2ccccc2Br)cc1` (stereo not given), the inhibition is inactive: 2.01%. With `COc1ccccc1OP(C)(=O)Nc1ccc(C)c(C)c1` (stereo not given), the inhibition was inactive: 12.1%. As for `Cc1nc2ccc3ccccc3c2o1.O=[N+]([O-])c1cc([N+](=O)[O-])c(O)c([N+](=O)[O-])c1`, the inhibition is inactive: 1.27%. With `CN(C)CCOC(=O)C(O)(c1ccccc1)C1CCCC1` (stereo not given), the inhibition was inactive: -4.28%. The figure for `COc1ccc(OP(C)(=O)Nc2ccccn2)cc1` (stereo not given) is inactive: -11%; for `Cc1c(NP(C)(=O)Oc2ccc(C(C)C)cc2)c(=O)n(-c2ccccc2)n1C` (stereo not given) it is inactive: 0.07%; for `CCc1ccc(OP(C)(=O)O)cc1` it is inactive: 4.75%. With `CP(=O)(Nc1ccccn1)Oc1ccccc1` (stereo not given), the inhibition was inactive: -5.32%. Regarding `COc1ccccc1OP(C)(=O)Nc1ccc(C)cc1C` (stereo not given), the inhibition was inactive: 4.34%. The figure for `CC(C)c1ccc(OP(C)(=O)Nc2ccc(SC(F)(F)F)cc2)cc1` (stereo not given) is inactive: -8.63%; for `CP(=O)(Nc1ccccc1F)Oc1ccccc1` (stereo not given) it is inactive: 9.26%; for `O=C(OCCN1CCN(CCOCc2ccccc2)CC1)C(O)(c1ccccc1)c1ccccc1` it is inactive: -7.62%.

For `CCOC(=O)c1ccc(NP(C)(=O)Oc2ccc(F)cc2)cc1` (stereo not given), the inhibition is inactive: -6.78%. The figure for `CCN(CC)CCCOC(=O)C(O)(c1ccccc1)C1CCCCC1` (stereo not given) is inactive: 12.4%; for `CP(=O)(Nc1ccccc1)Oc1ccc(F)cc1` (stereo not given) it is inactive: 5.5%. As for `COc1ccc(OP(C)(=O)Nc2cccc(Br)c2)cc1` (stereo not given), the inhibition is inactive: -3.73%. `CN(C)CCOC(=O)C(O)(c1ccccc1)C1CCCCC1` (stereo not given): the inhibition was inactive: 4.59%. As for `CCOP(C)(=S)SCC(=O)NC(C)(CC)C(=O)O` (stereo not given), the inhibition is inactive: -0.45%.

With `CP(=O)(Nc1ccc2c(c1)OCCO2)Oc1ccccc1` (stereo not given), the inhibition was inactive: 15.9%. Turning to `Cc1ccccc1NP(C)(=O)Nc1ccccc1C`, the inhibition was inactive: 4.49%.
